# Measured affinities in a library of Ab-91 heavy chain variants

All variants were tested on one target, the spike HR2 peptide PDVDLGDISGINAS (SARS-CoV-2).

Parent scFv Ab-91: VL joined to VH by a 15-residue (Gly4Ser)3 linker. Changes lie in the heavy chain CDRs alone.
VL: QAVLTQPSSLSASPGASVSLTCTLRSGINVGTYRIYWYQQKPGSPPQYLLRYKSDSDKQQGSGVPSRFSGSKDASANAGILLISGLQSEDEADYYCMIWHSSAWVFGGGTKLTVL
VH: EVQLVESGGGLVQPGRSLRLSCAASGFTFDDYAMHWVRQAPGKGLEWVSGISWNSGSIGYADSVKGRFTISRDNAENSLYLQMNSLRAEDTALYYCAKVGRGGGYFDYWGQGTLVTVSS

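The parent was found by panning a naive human phage display library on the peptide. Variants in AAYL51 differ from the parent at up to three CDR positions; double and triple changes were sampled at random. In AlphaSeq, yeast of one mating type display the scFv and yeast of the other type display the target. Mating (16 h, 30 °C) was followed by selection of diploids and sequencing of their barcodes. Each replicate has its own calibration line, from reference interactions of the BCL2 family. There are three technical replicates.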

Substitutions are numbered in sequence along the VH above, starting at 1 (not Kabat). Values are log10 of the apparent Kd in nM; lower means stronger binding. The mean shown is taken over the replicates in which the pair was detected. A pair that was not seen in any replicate is written "not detected"; this usually means weak binding, but a binder can also be missed. Nonspecific signal, from three strains lacking the peptide, appeared in 21% of pairings of library AAYL51, centred on 4.54 (5% of these signals below 3.26); values are not corrected for it. Also given: how often the same scFv was detected with the empty control strains. Parent in this assay: reference entry 1.86, copy in this library 0.88.

changes,"log10 Kd (nM), mean",replicates with signal,signal with controls
D30M M34I I51S,not detected,0/3,0/9
G59V D62C F106G,5.32,1/3,5/9
I58P V99I G104F,not detected,0/3,0/9
F29E R101C D107M,not detected,0/3,1/9
S52E V64R G102H,not detected,0/3,0/9
N54T V99E F106G,not detected,0/3,1/9
T28G G103E D107F,4.87,1/3,2/9
D31Y Y32W Y108E,not detected,0/3,0/9
T28Q Y32K M34T,5.73,1/3,1/9
S55W A61H V64Y,not detected,0/3,0/9
G59E V99R,5.12,1/3,3/9
H35P I51L A61S,4.49,1/3,2/9
S55E K65Y,1.78,3/3,3/9
D30M A61Q S63A,2.52,3/3,8/9
F27K D31Q R101Q,2.16,3/3,0/9
G26Y W53K R101C,4.86,1/3,0/9
D62G Y108S,2.49,3/3,1/9
Y32K G59F G103M,5.02,1/3,1/9
G56K I58A S63W,0.81,3/3,2/9
G102F G104H F106K,not detected,0/3,0/9
T28N G104L Y108C,3.72,1/3,1/9
G50A Y60G D107E,not detected,0/3,0/9
G50R I51M G59I,5.13,1/3,1/9
F27Y S57V R101C,4.28,1/3,3/9
D62V G100S G103H,5.13,3/3,6/9
I51C V99D D107M,4.12,3/3,1/9

Second part, the sequence after the result:

"log10 Kd (nM), mean",replicates with signal,signal with controls,changes
4.34,1/3,1/9,F29V K65V G103P
not detected,0/3,4/9,F27E G50V W53L
4.55,1/3,2/9,F29V G50S G104L
4.40,1/3,1/9,F27W N54M D62T
3.65,1/3,2/9,D30A K65F F106S
not detected,0/3,2/9,G50P G100H G104V
not detected,0/3,1/9,M34A F106L
3.86,2/3,2/9,D31Q I51R K65M
5.50,2/3,4/9,G59D Y105N
3.75,1/3,3/9,G50Y I58H G59K
2.65,3/3,6/9,K65Y G102A Y108C
not detected,0/3,0/9,S55R G102P Y108A
not detected,0/3,0/9,S57Y G100C G102L
5.26,1/3,2/9,S57T G100S F106M
not detected,0/3,0/9,T28Y D31W G59I
3.95,1/3,1/9,D62E V64C K65W
6.21,1/3,4/9,W53C G59Q Y108G
not detected,0/3,0/9,T28W F29V G104R
not detected,0/3,0/9,Y32C I51A A61E
not detected,0/3,0/9,G56R V64K G104M
3.17,1/3,0/9,I51E Y60N K65E
5.21,1/3,7/9,S52K W53C Y105S
not detected,0/3,0/9,T28V A33L I58F
3.44,1/3,0/9,G50W D107L
not detected,0/3,1/9,D30R G56K K65P
not detected,0/3,1/9,A61L S63K Y105P

The opening 3 entries, copied out:

| changes | log10 Kd (nM), mean | replicates with signal | signal with controls |
|---|---|---|---|
| D30M M34I I51S | not detected | 0/3 | 0/9 |
| G59V D62C F106G | 5.32 | 1/3 | 5/9 |
| I58P V99I G104F | not detected | 0/3 | 0/9 |

Reference: Engelhart et al. 2022, doi:10.1038/s41597-022-01779-4. File: FLAb, binding data.